This test deals with NusA-Nox2(357–570). Nature of the test: Inhibition of PDI reductase activity of NusA-Nox2(357–570), DE-GSSG reduction. Particulars: 50 μM.

Turning to `O=[As]c1ccccc1` (stereo not shown), the “effect on DTT-dependent disulfide reductase activity of NusA-Nox2(357–570)” value is reported as “abolished”.

The record behind these values is publication PMC4316792, “The dehydrogenase region of the NADPH oxidase component Nox2 acts as a protein disulfide isomerase (PDI) resembling PDIA3 with a role in the binding of the activator protein p67^phox” (Frontiers in Chemistry, 2015).
